Target: Src kinase, endogenous in LLC-PK1 cells and lines derived from PY-17 (pig (endogenous in LLC-PK1))
Assay: co-IP; lysates of AAC-19 (rat α1) and Y260A mutant cells; α1 Na/K-ATPase/Src interaction by immunoprecipitation and immunoblot, bands quantified, n = 3; precipitating antibody not named for this panel

Q: How did the percent decrease in binding against wild type (AAC-19) turn out when “rat α1 Na/K-ATPase Y260A mutant (from UniProt P06685 1-1023) (natural protein)” was run?
A: 60%
